From PMC9277925, “Discovery of a novel ALK/ROS1/FAK inhibitor, APG-2449, in preclinical non-small cell lung cancer and ovarian cancer models” (BMC Cancer, 2022)

Assays:
[1] = test system: Ba/F3 cells carrying EML4-ALK G1202R mutation; assay: Ba/F3 EML4-ALK G1202R xenograft efficacy; assay type: in vivo, SCID mice; details: Day 15, treated for 2 weeks
[2] = test system: NSCLC PDX LD1–0006-390,637 harboring ALK L1196M_G1202R double mutations; assay: NSCLC PDX LD1–0006-390,637 efficacy; assay type: in vivo, NU/NU mice

SMILES	T/C % [1] [%]	relapse observed on Day ([2]; first experiment) [days]	time mCR was sustained ([2]; independent repeat experiment)	mCR ([2]; independent repeat experiment (Suppl. Fig. 2B)) [%]	tumor status when lorlatinib group progressed (in words) ([2]; independent repeat experiment, Day 39)	mCR ([2]; on Day 16 of treatment) [%]
CCc1cc2c(cc1N1CCC(N3CCOCC3)CC1)C(C)(C)c1[nH]c3cc(C#N)ccc3c1C2=O [Alectinib]	130	28	at least 3 weeks	100	remained unpalpable	100
C[C@@H](Oc1cc(-c2cnn(C3CCNCC3)c2)cnc1N)c1c(Cl)ccc(F)c1Cl [crizotinib]	84.3					
